High-throughput results (PubChem)
The list is not random: actives were taken first. Their share in the collection is about 1.8%.
RAD52 anneal inh = RAD52 (human) annealing inhibition; P43351; recombinant RAD52 DNA annealing, FRET fluorescence; inhibition, % at 18.7 µM; 0.46% of 360,000 active; AID 651710;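 active means every replicate showing at least 50% inhibition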
E-selectin induc = E-selectin induction on HUVECs. HUVEC E-selectin immunofluorescence imaging; normalized: neutral wells 0, TNF-alpha wells 100. activation, % at 7.58 µM. 0.37% of 260,000 active. AID 686992;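 active means mean E-selectin-positive cell signal at least 10% of the positive control, reached in at least 60% of replicates, without over 20% cell loss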
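System: HUVEC, human umbilical vein endothelial cells; quantity: 3,000 cells/well; buffer or medium: EGM-2 medium, gelatin-coated wells; dosing: single-point compound dose; detection: immunofluorescence imaging; evaluation: % PE-positive cells; benchmarks: TNF-alpha, DMSO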
UUG fidelity = modulators of start codon recognition fidelity in yeast; S. cerevisiae UUG-firefly luciferase reporter, luminescence/redox ratio; AID 602363; 350,000 tested, 0.13% active; activity score, % at 18.7 µM;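 active = replicate mean at a twofold rise or more, about +100% in these data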;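 also: firefly luciferase made from a UUG start codon reports start codon fidelity; reporter light over untreated wells divided by growth signal over untreated wells; some hits fall short of that in this replicate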
RAD54 branch = inhibitors of human RAD54 branch migration | inhibition, % at 10.4 µM | 0.14% of 360,000 active | RAD54 Holliday junction branch migration, FAM/BHQ fluorescence;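 active means mean normalized replicate activity at least 40 and at least half of replicates scoring 40 or more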;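 further: 0% = median of neutral control wells and 100% = median of positive control wells; inhibitors cause a drop in the FAM fluorescence signal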
AF4-AF9 inh = inhibitors of human MLL-AF4/AF9 interaction; AlphaScreen, biotin-AF4 peptide binding to FLAG-AF9; inhibition, % at 10 µM; 0.47% of 350,000 active;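 active means every replicate reaching a set inhibition limit, whatever the replicate mean, cut at about 25% in these data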;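 further: 0% = plate neutral control median and 100% = total signal loss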
SIRT5 inh = blocks human SIRT5 desuccinylation of peptide; Q9NXA8; Purified SirT5, succinyl-peptide AMC, trypsin-coupled fluorescence; inhibition, % at 15 µM; 1.1% of 330,000 active; in the data active means inhibition above about 15%
AlphaScreen intf = counter-screen: AlphaScreen signal interference; shares compounds with AF4-AF9 inh; signal luminescence; AC50, µM (series often up to 12 µM), for the others: at the top dose activity change, negative = inhibition; 45% of 530 active; cut-off not given, nearly all actives have AC50 up to about 14 µM
* hit, by the source's call; i = inactive; · = not tested or not shown; ! = not confirmed by another sample.

Structure	RAD52 anneal inh	E-selectin induc	UUG fidelity	RAD54 branch	AF4-AF9 inh	SIRT5 inh	AlphaScreen intf
COc1ccc(CN2CCC(N(CCc3ccccc3)Cc3ccccc3)CC2)c(OC)c1	46	0	8	7	30*	-6	-21%
Cn1ccc2c(N3CCCCC3)cc3c(c21)C1CCC3C1 (stereo unspecified)	-3	-1	1	1	52*	-1	-16%
CSc1ccc(-c2cc3c(c4c2ccn4C)C2CCC3C2)cc1 (stereo unspecified)	-12	-2	-5	-1	7	-2	·
Cc1ccsc1/C=N/N1CCN(Cc2ccccc2)CC1	2	·	-32	3	27*	-4	-17%
Cc1ccsc1/C=N/N1CCN(c2ccccc2)CC1	-12	·	-9	-2	10	-1	·
CCC[C@@H](CN1CCC[C@H]1CN1C(N)=NC[C@@H]1Cc1ccccc1)N1C[C@@H]([C@H](C)CC)N(CCc2ccc(Cl)c(Cl)c2)C1=N	·	·	0	7	·	·	·
CCC[C@@H](CN1CCC[C@H]1CN1C(N)=NC[C@@H]1Cc1ccccc1)N1C[C@@H](Cc2ccccc2)N(CCc2ccc(Cl)c(Cl)c2)C1=N	56*	0	16	19	30*	·	-9%
CCCN1[C@H](C(=O)OC)[C@@H](CO)[C@@H]2Cn3c(ccc(C4=CCCCC4)c3=O)[C@@H]21	-8	0	-9	-8	0	-2	·
O=S(=O)(N[C@H]1CC[C@@H](CCn2cc(C3(O)CCCC3)nn2)O[C@@H]1CO)c1ccccc1	0	-1	-8	-5	-1	-1	·
c1ccc(Nc2nc(NCC3CCCO3)c3ccccc3n2)cc1 (stereo unspecified)	7	-1	-5	24	6	-2	·
CCOc1ccc(Nc2nc(NCC3CCCO3)c3ccccc3n2)cc1 (stereo unspecified)	10	1	·	·	28*	-6	-11%
CN(C)c1cccc2c(C=C(C#N)C#N)ccc(N(C)C)c12	-12	0	-20	12	51*	·	-23%
Cn1c(=O)cc2c3c(c(N4CCCCC4)ccc31)C(=O)c1ccccc1-2	-59	·	17	11	54*	-4	10µM*
Cn1c(=O)c(NC2CCCCC2)c2c3c(cccc31)C(=O)c1ccccc1-2	i	22	·	·	-30	-5	·
CCCCCc1cc(=O)oc2c(C(CCN3CCCC3)c3ccc(N(C)C)cc3)c(OC)cc(OC)c12 (stereo unspecified)	49	0	-4	-9	57*	·	7µM*
CCCCCc1cc(=O)oc2c(C(CCN3CCCCC3)c3ccc(OC)cc3)c(OC)cc(OC)c12 (stereo unspecified)	-122	0	-6	1	19	·	·
CNCCNC[C@H](Cc1cccc2ccccc12)NCCc1ccccc1	29	0	-10	11	13	·	·
CNC[C@H](Cc1ccccc1)NC[C@@H](Cc1cccc2ccccc12)NCCc1ccc(C)cc1	39	0	-3	25	45*	·	-24%
C[C@@H]1CN([C@@H](C)CO)C(=O)Cc2cc(NS(C)(=O)=O)ccc2O[C@@H]1CN(C)C(=O)Nc1cccc2ccccc12	-14	·	·	4	-2	2	·
CC(=Nc1ccc(C)cc1C)c1sc2ccccc2c1O	-122	-4	·	·	32*	·	-23%
Cc1ccc(S(=O)(=O)N(C)C[C@H]2Oc3ccc(NS(C)(=O)=O)cc3C(=O)N([C@H](C)CO)C[C@@H]2C)cc1	0	0	-8	-4	-2	-2	·
CCCCCC1NC(=O)NC1CCCCCC(=O)O (stereo unspecified)	·	·	18	-23	·	·	·
C[C@@H]1NC(=O)N[C@@H]1CCCCCC(=O)O	-10	0	-16	14	90*	-1	1.1µM*
N#C/C(C(N)=O)=c1/ccc2c(c1)N1C3=C(CCCC3)CC3CCCCC31N=2 (stereo unspecified)	·	·	1	-39	85*	·	2.7µM*
CCN(CC)CCOc1ccc(/C(=C(/Cl)c2ccccc2)c2ccccc2)cc1	41	0	-9	8	31*!	-3	-22%
CN(C)c1ccc(N=Nc2ccccc2Br)cc1	-14	1	-62	3	35*	-2	12µM*
CC(=O)c1ccc(N=Nc2ccc(N(C)C)cc2)cc1	7	·	-12	-2	4	1	·
CN1[C@@H]2Cn3c(ccc(-c4cccnc4)c3=O)[C@H]1[C@@H](C(=O)NCCc1ccccc1)[C@@H]2CO	·	0	·	·	·	·	·
Cc1ccc(S(=O)(=O)Nc2ccc3c(c2)C(=O)N([C@@H](C)CO)C[C@H](C)[C@@H](CN(C)C(=O)CCC(F)(F)F)OCCCC[C@@H](C)O3)cc1	16	·	7	3	-2	8	·
CN(C)c1ccc(/C=C2/C[N+](C)(C)C/C(=C/c3ccc(N(C)C)cc3)C2=O)cc1	-125	0	·	·	56*	11	5.8µM*
CC(C)/C=C1\CC/C(=C\c2ccc(N(C)C)cc2)C1=O	-120	·	·	·	0	10	·
COCCNC(=O)c1cc2c(c(-c3cccc(C4=CCCCC4)c3)n1)[C@H](CCO)N([S@@](=O)C(C)(C)C)C2	-46	1	·	·	1	0	·
COc1ccc(C(CCN2CCN(c3ccccc3)CC2)c2c(O)cc(OC)cc2OC)cc1 (stereo unspecified)	·	0	-8	-10	·	·	·
COc1cc(O)c(C(CCN2CCN(c3ccccc3)CC2)c2ccc(N(C)C)cc2)c(OC)c1 (stereo unspecified)	-7	·	1	3	50*	·	-23%
CN1C(=O)c2cc(NC(=O)Nc3ccccc3F)ccc2OC[C@@H]2O[C@H](CC(=O)NCc3ccc(-c4ccccc4)cc3)CC[C@H]21	-21	0	-21	4	-2	0	·
COc1ccc(C(CCNCc2ccc(N(C)C)cc2)c2ccccc2OC)cc1 (stereo unspecified)	-28	0	-3	2	51*	-1	4.7µM*

Look-ups from the entries so far.
Cc1ccc(S(=O)(=O)Nc2ccc3c(c2)C(=O)N([C@@H](C)CO)C[C@H](C)[C@@H](CN(C)C(=O)CCC(F)(F)F)OCCCC[C@@H](C)O3)cc1 in RAD52 anneal inh is entered as 16
COc1ccc(C(CCN2CCN(c3ccccc3)CC2)c2c(O)cc(OC)cc2OC)cc1 (stereo unspecified) in E-selectin induc is entered as 0

Further compounds follow:
Structure	RAD52 anneal inh	E-selectin induc	UUG fidelity	RAD54 branch	AF4-AF9 inh	SIRT5 inh	AlphaScreen intf
COc1ccc(CNCCC(c2ccc(OC)cc2)c2ccccc2OC)cc1 (stereo unspecified)	-29	0	-8	2	6	-9	·
C[C@H](NC(=O)C[C@H]1CC[C@@H](NC(=O)Nc2ccc3c(c2)OCO3)[C@@H](CO)O1)c1ccccc1	-3	-1	-12	-3	1	1	·
O=C(CNCc1ccco1)Nc1ccc(N2CCCCCC2)cc1	-2	·	·	·	29*	0	-37%
O=C(CNC(=O)c1ccco1)Nc1ccc(N2CCCCCC2)cc1	-10	0	-20	-5	5	-1	·
CN(C)c1cccc2c1C(=O)c1ccccc1C2=O	9	·	·	·	43*	-1	13µM*
CNC(=S)N1N=C(c2ccc(Br)cc2)CC1c1ccc(Br)cc1 (stereo unspecified)	·	·	-15	-2	·	·	·

Sorted by value in SIRT5 inh (rising): five from the list above.
Structure,SIRT5 inh
COc1ccc(CN2CCC(N(CCc3ccccc3)Cc3ccccc3)CC2)c(OC)c1,-6
CCCN1[C@H](C(=O)OC)[C@@H](CO)[C@@H]2Cn3c(ccc(C4=CCCCC4)c3=O)[C@@H]21,-2
Cn1ccc2c(N3CCCCC3)cc3c(c21)C1CCC3C1 (stereo unspecified),-1
CN1C(=O)c2cc(NC(=O)Nc3ccccc3F)ccc2OC[C@@H]2O[C@H](CC(=O)NCc3ccc(-c4ccccc4)cc3)CC[C@H]21,0
CC(C)/C=C1\CC/C(=C\c2ccc(N(C)C)cc2)C1=O,10
